Tests used:
hPPARδ = target: T1, hPPARδ (Homo sapiens, UniProt Q03181); assay: Gal4-hPPARδ chimera transactivation (luciferase) in COS-7 cells; type: cell-based; details: relative to maximum activation obtained with GW501516, 24 hours
T1 construct: corresponding to the DEF domains (structural elements of the promoter of the PPARs: D=hinge, EF=ligand fixation domain and AF2 fixation site); expressed in transfected cells; host or cells: COS-7 (monkey kidney fibroblasts)
T1 sequence (Q03181 211-439 limits assumed): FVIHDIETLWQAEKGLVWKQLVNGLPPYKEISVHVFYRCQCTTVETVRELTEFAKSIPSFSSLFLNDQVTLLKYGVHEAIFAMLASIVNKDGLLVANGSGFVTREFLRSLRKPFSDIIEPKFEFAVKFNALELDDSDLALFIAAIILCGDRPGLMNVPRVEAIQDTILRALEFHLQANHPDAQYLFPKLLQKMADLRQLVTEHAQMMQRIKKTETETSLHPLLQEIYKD
Description: (§1) Activation of PPARs is evaluated in vitro on a line of monkey kidney fibroblasts (COS-7) by measuring the transcriptional activity of chimeras consisting of the DNA binding domain of Gal4 transcription factor of yeast and of the ligand binding domain of the various PPARs of human origin (hPPAR). The compounds are tested at doses between 0.01 and 100 μM on chimeras Gal4-PPARα, γ, δ and EC50 is determined.
(§2) The COS-7 cells are from ATCC and are cultivated in DMEM medium supplemented with 10% (vol/vol) of fetal calf serum, 1% of penicillin/streptomycin (Biochrom, AG), 1% of amino acids (Gibco) and 1% of sodium pyruvate (Gibco). The cells are incubated at 37° C. in a humid atmosphere containing 5% CO2.
(§3) The plasmids Gal4(RE)_TkpGL3, pGal4-hPPARα, pGal4-hPPARγ, pGal4-hPPARδ and pGal4-φ are described in the literature (Raspe E et al., 1999). […]
(§4) The adherent COS-7 cells are transfected with 40 μg of DNA per 225 cm^2 flask, with a pGal4-hPPAR/Gal4(RE)_TkpGL3 ratio of 1/10, in the presence of 10% of fetal calf serum. […] At the end of the experiment, the cells are lysed and the luciferase activity is determined using the Steady-Lite™ HTS (Perkin Elmer) according to the supplier's recommendations.
(§5) The test data are summarized in Table 8-1 below, which presents, for each compound, the values of maximum activation (TOP %) and the EC50 values measured for each isoform of PPAR. […]

Protein sequences, listed by entry. Tags and fused reporters are not part of them. Residues count along the entry.
UniProt P37231, 238-503 limits assumed: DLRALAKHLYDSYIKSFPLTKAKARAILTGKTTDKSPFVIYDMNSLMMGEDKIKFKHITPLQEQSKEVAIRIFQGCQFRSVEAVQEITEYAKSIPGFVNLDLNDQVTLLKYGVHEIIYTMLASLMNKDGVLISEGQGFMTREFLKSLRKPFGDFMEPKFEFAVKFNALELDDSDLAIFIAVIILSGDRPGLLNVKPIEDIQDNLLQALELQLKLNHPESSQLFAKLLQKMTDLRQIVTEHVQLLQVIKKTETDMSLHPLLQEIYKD

hPPARγ = target: T2, hPPARγ (Homo sapiens, UniProt P37231); assay: Gal4-hPPARγ chimera transactivation (luciferase) in COS-7 cells; type: cell-based; details: relative to maximum activation obtained with rosiglitazone, 24 hours
T2 construct: corresponding to the DEF domains (structural elements of the promoter of the PPARs: D=hinge, EF=ligand fixation domain and AF2 fixation site); expressed in transfected cells; host or cells: COS-7 (monkey kidney fibroblasts)
Description: as §1, §2, §3, §4, §5

PPARδ TOP % (maximum activation) (hPPARδ): 1.13% | PPARγ TOP % (maximum activation) (hPPARγ): 7.28%
Substance: 2-(4-(((2-methoxy-6-furylpyridin-3-yl)methyl)amino)phenylthio)ethanoic acid [Cpd 30]
